## Apparent affinities of Ab-91 variants for a coronavirus HR2 peptide

Target: peptide PDVDLGDISGINAS, taken from heptad repeat 2 (HR2) of SARS-CoV-2 spike.

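The library (AAYL51) carries one to three amino acid substitutions per variant, with no insertions or deletions. The assay is AlphaSeq: two haploid yeast populations carry antibody and antigen on their surface. The frequency of each diploid, read from paired DNA barcodes, reflects how well the two displayed proteins bind. Scores were corrected for input abundance and mapped to Kd with protein pairs of known affinity run in the same pool. Mating was done three times.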

Ab-91 is the parent antibody, in scFv form: VL, then a (GGGGS)3 linker, then VH. The light chain is unchanged in all variants.
VL: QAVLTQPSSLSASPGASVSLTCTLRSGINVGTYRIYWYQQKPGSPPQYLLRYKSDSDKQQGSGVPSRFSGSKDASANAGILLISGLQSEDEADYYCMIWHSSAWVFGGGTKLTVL
VH: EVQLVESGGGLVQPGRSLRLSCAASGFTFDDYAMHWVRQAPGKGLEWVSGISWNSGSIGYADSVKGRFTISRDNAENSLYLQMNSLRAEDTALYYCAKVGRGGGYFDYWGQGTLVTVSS

Positions count from residue 1 of the parent VH; H35M puts M in place of H.
All variants listed here change V64 of the VH, counted from its first residue.
Values are apparent Kd, the geometric mean of the replicates that gave a signal; lower means stronger binding.
Where no diploid with the target was found in any replicate, the entry reads "no signal": below detection, most likely a poor binder, though not proof of it.
As a blank, each scFv also met three strains without target: over library AAYL51, 21% of these pairings were detected, typically at 34 µM and seldom below 1.8 µM.
Parent in this assay: reference entry 72 nM, copy in this library 7.5 nM.

The variant H35M/V64M showed no signal (0 of 3 replicates). The variant G50P/V64F/K65I gave 71 µM (1 of 3 replicates). With D31N/V64I/V99D the result was 68 µM (3 of 3 replicates). For V64P/K65G/R101M, the assay gave no signal (0 of 3 replicates). The variant A33Y/V64K showed no signal (0 of 3 replicates). The variant V64P/G100S/Y105T gave no signal (0 of 3 replicates).

The variant A61P/V64M/K65A gave 50 µM (1 of 3 replicates). The variant D31R/V64T/G104K showed no signal (0 of 3 replicates). For G50Q/V64F/Y105H, the assay gave 1.9 mM (1 of 3 replicates). The variant I51M/G56W/V64D showed no signal (0 of 3 replicates). The variant H35Q/A61P/V64I showed no signal (0 of 3 replicates). The variant V64R/G103H/D107S showed no signal (0 of 3 replicates).

The variant S57T/V64T/R101H gave no signal (0 of 3 replicates). With S55K/V64T the result was 63 µM (1 of 3 replicates). For S63Q/V64L/F106R, the assay gave no signal (0 of 3 replicates). With I58G/V64P/K65T the result was 11 µM (1 of 3 replicates). With S52Q/G59S/V64K the result was no signal (0 of 3 replicates). The variant V64Y/G102P showed no signal (0 of 3 replicates).

With V64R/D107I the result was 7.3 µM (1 of 3 replicates). For V64E/V99W, the assay gave 80 µM (2 of 3 replicates). For A33I/V64W/K65D, the assay gave no signal (0 of 3 replicates). With G56L/V64L/V99C the result was no signal (0 of 3 replicates). For G50E/N54R/V64Y, the assay gave no signal (0 of 3 replicates). The variant A33G/S52Y/V64A showed 68 µM (1 of 3 replicates).

For G56H/A61C/V64T, the assay gave 16 µM (2 of 3 replicates). With G26D/V64Q/D107H the result was no signal (0 of 3 replicates). With N54L/V64S the result was no signal (0 of 3 replicates). With M34L/S57K/V64A the result was 3.5 µM (2 of 3 replicates). The variant V64W/G102S/F106C gave no signal (0 of 3 replicates). The variant A61V/V64M/G104S showed 120 µM (3 of 3 replicates).

The variant T28N/A61V/V64G gave no signal (0 of 3 replicates). For A33D/V64D/R101Q, the assay gave 58 µM (2 of 3 replicates). The variant H35S/V64R gave no signal (0 of 3 replicates). The variant S57I/V64F showed 2.8 µM (2 of 3 replicates). With F27H/F29M/V64E the result was 4.7 µM (1 of 3 replicates). The variant S63C/V64T/G100N gave 67 µM (1 of 3 replicates).

For G56V/V64S, the assay gave no signal (0 of 3 replicates). For D31C/I58P/V64P, the assay gave 67 µM (3 of 3 replicates). For G56L/V64C/V99K, the assay gave 2.1 µM (1 of 3 replicates). For H35E/G59H/V64L, the assay gave 1.5 mM (1 of 3 replicates). The variant H35G/V64S showed 150 µM (1 of 3 replicates). The variant V64E/R101W/F106P showed 37 µM (2 of 3 replicates).

The variant S52G/V64N gave 2.2 µM (1 of 3 replicates). The variant V64I/K65H/Y105K showed 170 µM (3 of 3 replicates). The variant G26H/V64T/K65S gave 16 µM (1 of 3 replicates). The variant D31A/S55P/V64H gave no signal (0 of 3 replicates).

Excerpt, the final 8 entries:

The variant G56L/V64C/V99K gave 2.1 µM (1 of 3 replicates).
The variant H35E/G59H/V64L gave 1.5 mM (1 of 3 replicates).
The variant H35G/V64S gave 150 µM (1 of 3 replicates).
The variant V64E/R101W/F106P gave 37 µM (2 of 3 replicates).
The variant S52G/V64N gave 2.2 µM (1 of 3 replicates).
The variant V64I/K65H/Y105K gave 170 µM (3 of 3 replicates).
The variant G26H/V64T/K65S gave 16 µM (1 of 3 replicates).
The variant D31A/S55P/V64H gave no signal (0 of 3 replicates).

Reference: Engelhart et al. 2022, doi:10.1038/s41597-022-01779-4. File: FLAb, binding data.